Several values for one entry are separate records, joined by “and”; a condition that tells them apart may be missing. Identical values can stand only once.
Experiments:
Details in all cases: 10µM
ABL2/ARG = target: T1, ABL2/ARG (Homo sapiens, UniProt P42684); experiment: HotSpot kinase assay; assay type: biochemical
T1 construct: purchased Reaction Biology Corporation

The chains behind the UniProt entries cited, without tags or fusion partners. Where a name states a change or a piece, a line headed by the entry shows the natural chain unless it says otherwise.
UniProt Q13882, whole entry: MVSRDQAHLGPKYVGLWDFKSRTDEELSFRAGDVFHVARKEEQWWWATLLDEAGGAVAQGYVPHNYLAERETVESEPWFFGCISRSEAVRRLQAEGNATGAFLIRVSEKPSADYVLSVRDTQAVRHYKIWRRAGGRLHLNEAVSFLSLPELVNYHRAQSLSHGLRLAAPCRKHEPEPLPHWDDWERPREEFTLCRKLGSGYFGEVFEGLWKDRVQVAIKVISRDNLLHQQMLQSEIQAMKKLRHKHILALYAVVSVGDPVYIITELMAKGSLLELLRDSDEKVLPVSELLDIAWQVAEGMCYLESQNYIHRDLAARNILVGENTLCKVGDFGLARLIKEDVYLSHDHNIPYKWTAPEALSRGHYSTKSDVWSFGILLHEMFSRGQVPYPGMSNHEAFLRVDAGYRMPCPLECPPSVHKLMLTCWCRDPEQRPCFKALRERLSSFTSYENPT
UniProt Q00535, whole entry: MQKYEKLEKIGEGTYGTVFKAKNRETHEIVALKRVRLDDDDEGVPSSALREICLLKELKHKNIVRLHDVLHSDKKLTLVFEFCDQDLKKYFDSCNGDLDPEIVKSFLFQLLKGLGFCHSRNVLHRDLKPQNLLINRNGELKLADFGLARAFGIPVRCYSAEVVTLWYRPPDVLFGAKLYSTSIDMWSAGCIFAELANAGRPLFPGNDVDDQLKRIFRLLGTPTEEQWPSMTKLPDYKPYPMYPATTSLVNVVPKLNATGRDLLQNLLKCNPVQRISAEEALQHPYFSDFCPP
UniProt P49840: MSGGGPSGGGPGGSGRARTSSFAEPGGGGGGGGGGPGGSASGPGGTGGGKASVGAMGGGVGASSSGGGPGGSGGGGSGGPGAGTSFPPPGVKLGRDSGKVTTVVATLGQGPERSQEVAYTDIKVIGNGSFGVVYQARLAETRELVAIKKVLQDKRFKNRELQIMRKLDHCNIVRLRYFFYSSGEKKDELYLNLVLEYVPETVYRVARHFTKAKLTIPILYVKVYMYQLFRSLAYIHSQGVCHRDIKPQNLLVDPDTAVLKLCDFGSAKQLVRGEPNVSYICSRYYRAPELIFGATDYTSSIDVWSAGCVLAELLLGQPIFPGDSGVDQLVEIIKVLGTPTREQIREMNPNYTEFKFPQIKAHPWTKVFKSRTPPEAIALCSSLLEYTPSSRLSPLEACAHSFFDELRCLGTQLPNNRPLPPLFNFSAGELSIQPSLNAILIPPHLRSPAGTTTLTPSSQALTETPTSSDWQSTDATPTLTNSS
UniProt P53667: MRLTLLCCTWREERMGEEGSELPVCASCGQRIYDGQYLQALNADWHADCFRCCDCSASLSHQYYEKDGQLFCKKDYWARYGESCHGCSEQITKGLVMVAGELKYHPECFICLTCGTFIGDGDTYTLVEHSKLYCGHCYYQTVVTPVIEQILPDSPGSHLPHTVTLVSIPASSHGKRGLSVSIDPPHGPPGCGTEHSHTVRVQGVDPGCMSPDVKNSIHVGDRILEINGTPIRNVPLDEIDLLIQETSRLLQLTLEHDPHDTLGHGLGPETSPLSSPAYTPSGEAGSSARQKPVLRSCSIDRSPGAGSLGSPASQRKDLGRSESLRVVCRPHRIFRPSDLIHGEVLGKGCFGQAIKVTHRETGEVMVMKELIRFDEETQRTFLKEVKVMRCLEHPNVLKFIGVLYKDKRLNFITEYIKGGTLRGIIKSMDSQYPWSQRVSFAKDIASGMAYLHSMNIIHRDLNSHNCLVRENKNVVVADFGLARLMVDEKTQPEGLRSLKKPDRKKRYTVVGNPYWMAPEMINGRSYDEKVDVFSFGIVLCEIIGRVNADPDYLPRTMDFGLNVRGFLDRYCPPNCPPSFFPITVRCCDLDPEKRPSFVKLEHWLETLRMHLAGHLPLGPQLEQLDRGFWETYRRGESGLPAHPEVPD
UniProt O75582, whole entry: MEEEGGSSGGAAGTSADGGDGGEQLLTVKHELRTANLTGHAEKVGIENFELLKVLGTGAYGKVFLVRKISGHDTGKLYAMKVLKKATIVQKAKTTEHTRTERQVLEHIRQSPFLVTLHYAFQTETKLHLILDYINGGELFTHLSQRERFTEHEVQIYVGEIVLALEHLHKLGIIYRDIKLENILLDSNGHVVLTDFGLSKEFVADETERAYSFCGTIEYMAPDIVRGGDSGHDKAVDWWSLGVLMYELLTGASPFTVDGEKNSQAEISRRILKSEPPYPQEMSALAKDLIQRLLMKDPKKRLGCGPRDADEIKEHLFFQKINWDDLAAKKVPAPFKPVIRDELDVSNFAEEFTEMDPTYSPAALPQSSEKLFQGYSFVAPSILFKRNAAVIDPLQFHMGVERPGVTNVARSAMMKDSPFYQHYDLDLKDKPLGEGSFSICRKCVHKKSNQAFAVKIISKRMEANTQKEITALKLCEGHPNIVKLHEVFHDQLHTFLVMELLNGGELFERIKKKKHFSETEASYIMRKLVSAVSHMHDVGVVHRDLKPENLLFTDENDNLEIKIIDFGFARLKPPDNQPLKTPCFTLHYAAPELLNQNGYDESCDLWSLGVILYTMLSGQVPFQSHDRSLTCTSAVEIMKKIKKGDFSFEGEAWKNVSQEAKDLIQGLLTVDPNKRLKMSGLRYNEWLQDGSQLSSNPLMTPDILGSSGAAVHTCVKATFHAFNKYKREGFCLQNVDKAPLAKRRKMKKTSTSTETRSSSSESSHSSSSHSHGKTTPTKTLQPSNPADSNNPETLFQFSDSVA
UniProt Q8WXR4: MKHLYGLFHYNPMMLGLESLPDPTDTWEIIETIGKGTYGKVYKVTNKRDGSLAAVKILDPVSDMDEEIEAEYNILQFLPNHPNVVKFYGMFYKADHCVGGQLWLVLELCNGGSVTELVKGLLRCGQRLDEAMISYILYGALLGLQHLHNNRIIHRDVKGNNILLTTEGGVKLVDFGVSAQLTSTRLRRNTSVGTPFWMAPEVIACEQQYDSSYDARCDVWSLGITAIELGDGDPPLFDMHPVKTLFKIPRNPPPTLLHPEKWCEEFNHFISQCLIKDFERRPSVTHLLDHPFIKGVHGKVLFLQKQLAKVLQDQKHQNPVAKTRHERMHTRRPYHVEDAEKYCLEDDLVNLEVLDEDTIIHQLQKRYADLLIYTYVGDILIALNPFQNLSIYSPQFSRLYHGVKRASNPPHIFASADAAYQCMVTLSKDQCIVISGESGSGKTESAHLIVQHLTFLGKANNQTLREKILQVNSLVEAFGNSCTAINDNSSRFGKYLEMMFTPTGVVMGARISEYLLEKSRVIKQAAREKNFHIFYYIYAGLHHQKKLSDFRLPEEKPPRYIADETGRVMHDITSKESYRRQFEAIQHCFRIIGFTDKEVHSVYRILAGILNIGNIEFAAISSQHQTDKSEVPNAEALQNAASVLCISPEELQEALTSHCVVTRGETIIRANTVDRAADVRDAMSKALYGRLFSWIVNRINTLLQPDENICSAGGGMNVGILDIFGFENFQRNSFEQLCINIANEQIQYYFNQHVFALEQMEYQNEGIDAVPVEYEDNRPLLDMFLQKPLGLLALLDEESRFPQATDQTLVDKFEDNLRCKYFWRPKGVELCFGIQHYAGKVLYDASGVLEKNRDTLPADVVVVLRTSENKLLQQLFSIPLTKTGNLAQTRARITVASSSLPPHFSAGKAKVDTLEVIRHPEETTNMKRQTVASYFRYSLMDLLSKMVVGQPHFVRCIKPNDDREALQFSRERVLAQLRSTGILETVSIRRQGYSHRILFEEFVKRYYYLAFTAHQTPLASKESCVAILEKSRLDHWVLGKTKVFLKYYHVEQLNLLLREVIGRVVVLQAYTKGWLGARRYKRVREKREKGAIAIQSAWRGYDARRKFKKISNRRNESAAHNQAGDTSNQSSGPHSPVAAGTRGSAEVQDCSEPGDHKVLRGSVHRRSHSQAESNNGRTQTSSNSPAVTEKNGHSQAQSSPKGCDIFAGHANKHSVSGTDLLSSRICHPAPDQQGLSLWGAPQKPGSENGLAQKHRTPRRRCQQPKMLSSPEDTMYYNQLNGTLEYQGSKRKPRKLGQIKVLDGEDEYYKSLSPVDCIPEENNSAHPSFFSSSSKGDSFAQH
UniProt Q9Y2K2: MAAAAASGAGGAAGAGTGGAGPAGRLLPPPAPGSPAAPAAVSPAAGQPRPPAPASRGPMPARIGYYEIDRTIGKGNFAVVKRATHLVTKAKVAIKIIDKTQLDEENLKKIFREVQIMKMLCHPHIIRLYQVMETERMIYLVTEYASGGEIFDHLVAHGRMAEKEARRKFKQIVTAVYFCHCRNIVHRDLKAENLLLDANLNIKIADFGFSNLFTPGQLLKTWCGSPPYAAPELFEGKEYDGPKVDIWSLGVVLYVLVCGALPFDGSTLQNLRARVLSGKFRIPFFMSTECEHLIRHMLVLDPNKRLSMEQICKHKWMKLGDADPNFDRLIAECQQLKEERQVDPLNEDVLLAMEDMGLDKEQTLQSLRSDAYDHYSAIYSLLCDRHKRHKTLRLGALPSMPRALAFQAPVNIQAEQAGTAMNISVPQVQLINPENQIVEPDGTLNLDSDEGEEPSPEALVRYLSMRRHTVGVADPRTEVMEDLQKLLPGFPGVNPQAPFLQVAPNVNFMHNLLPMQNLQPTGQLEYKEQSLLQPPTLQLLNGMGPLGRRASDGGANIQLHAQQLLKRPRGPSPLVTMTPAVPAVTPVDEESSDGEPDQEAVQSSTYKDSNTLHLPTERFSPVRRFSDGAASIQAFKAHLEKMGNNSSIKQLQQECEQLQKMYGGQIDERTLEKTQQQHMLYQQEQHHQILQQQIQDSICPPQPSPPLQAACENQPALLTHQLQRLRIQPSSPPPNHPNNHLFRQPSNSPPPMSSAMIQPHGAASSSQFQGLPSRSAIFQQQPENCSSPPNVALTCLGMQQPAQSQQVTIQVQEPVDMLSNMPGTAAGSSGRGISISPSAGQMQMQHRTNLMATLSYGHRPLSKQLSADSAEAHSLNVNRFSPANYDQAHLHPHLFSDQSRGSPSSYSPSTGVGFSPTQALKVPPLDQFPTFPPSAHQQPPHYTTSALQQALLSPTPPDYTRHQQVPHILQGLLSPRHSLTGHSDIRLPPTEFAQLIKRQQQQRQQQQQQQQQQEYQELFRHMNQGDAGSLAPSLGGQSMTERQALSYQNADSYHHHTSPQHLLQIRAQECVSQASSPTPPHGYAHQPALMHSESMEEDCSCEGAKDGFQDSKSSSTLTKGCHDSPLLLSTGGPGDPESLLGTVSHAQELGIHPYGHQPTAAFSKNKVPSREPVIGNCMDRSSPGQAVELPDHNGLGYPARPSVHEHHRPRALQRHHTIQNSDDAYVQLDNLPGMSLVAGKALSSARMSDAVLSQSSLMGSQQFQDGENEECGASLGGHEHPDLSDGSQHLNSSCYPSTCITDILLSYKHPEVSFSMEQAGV
UniProt O75716, whole entry: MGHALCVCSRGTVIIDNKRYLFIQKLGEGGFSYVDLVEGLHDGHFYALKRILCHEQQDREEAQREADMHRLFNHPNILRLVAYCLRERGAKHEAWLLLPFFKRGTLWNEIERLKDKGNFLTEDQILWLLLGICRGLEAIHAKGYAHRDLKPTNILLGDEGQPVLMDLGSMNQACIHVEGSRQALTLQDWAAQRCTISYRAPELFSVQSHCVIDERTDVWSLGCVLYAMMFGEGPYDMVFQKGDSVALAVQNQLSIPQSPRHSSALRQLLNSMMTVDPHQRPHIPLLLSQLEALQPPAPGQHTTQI
UniProt Q9H2K8: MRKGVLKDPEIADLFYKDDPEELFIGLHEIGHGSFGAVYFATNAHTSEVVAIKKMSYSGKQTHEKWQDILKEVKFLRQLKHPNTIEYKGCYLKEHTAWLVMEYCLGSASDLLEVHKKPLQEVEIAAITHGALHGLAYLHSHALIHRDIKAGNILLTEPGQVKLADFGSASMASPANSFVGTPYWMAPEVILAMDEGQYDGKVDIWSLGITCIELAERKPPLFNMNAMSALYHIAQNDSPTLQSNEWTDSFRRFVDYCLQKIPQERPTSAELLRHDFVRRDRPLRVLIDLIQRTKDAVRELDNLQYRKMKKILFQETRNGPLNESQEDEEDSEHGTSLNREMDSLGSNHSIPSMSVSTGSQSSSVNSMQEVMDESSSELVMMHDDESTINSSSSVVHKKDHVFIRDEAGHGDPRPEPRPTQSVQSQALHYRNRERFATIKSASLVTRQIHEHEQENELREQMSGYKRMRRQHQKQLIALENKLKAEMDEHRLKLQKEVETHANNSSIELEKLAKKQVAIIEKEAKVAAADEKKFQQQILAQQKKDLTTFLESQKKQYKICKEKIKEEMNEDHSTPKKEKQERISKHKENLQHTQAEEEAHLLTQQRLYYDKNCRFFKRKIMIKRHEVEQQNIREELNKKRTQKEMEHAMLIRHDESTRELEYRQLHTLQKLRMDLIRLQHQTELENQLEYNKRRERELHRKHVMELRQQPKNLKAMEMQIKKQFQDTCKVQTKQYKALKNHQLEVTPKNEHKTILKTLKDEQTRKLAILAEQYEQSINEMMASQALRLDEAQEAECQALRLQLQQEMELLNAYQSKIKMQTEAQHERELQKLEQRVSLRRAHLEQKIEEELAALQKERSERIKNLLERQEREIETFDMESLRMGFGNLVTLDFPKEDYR

AKT2 = target: T2, AKT2 (Homo sapiens, UniProt P31751); assay type: biochemical
T2 construct: purchased Reaction Biology Corporation

AKT3 = target: T3, AKT3 (Homo sapiens, UniProt Q9Y243); assay type: biochemical
T3 construct: purchased Reaction Biology Corporation

BLK = target: T4, BLK (Homo sapiens, UniProt P51451); experiment: HotSpot kinase assay; assay type: biochemical
T4 construct: purchased Reaction Biology Corporation

BRK = target: T5, BRK (Homo sapiens, UniProt Q13882); experiment: HotSpot kinase assay; assay type: biochemical
T5 construct: purchased Reaction Biology Corporation

CAMK2g = target: T6, CAMK2g (Homo sapiens, UniProt Q13555); experiment: HotSpot kinase assay; assay type: biochemical
T6 construct: purchased Reaction Biology Corporation

CDK2/cyclin A1 = target: T7, CDK2/cyclin A1 (Homo sapiens, UniProt P24941); experiment: HotSpot kinase assay; assay type: biochemical
T7 construct: purchased Reaction Biology Corporation

CDK2/cyclin E2 = target: T8, CDK2/cyclin E2 (Homo sapiens, UniProt P24941); experiment: HotSpot kinase assay; assay type: biochemical
T8 construct: purchased Reaction Biology Corporation

CDK5/P25 = target: T9, CDK5/P25 (Homo sapiens, UniProt Q00535); experiment: HotSpot kinase assay; assay type: biochemical
T9 construct: purchased Reaction Biology Corporation

CDK5/p35 = target: T10, CDK5/p35 (Homo sapiens, UniProt Q00535); experiment: HotSpot kinase assay; assay type: biochemical
T10 construct: purchased Reaction Biology Corporation

CDK7/cyclin H = target: T11, CDK7/cyclin H (Homo sapiens, UniProt P50613); experiment: HotSpot kinase assay; assay type: biochemical
T11 construct: purchased Reaction Biology Corporation

EPHA1 = target: T12, EPHA1 (Homo sapiens, UniProt P21709); experiment: HotSpot kinase assay; assay type: biochemical
T12 construct: purchased Reaction Biology Corporation

EPHA5 = target: T13, EPHA5 (Homo sapiens, UniProt P54756); experiment: HotSpot kinase assay; assay type: biochemical
T13 construct: purchased Reaction Biology Corporation

ERK1 = target: T14, ERK1 (Homo sapiens, UniProt P27361); experiment: HotSpot kinase assay; assay type: biochemical
T14 construct: purchased Reaction Biology Corporation

FER = target: T15, FER (Homo sapiens, UniProt P16591); experiment: HotSpot kinase assay; assay type: biochemical
T15 construct: purchased Reaction Biology Corporation

GCK/MAP4K2 = target: T16, GCK/MAP4K2 (Homo sapiens, UniProt Q12851); experiment: HotSpot kinase assay; assay type: biochemical
T16 construct: purchased Reaction Biology Corporation

GRK2 = target: T17, GRK2 (Homo sapiens, UniProt P25098); assay type: biochemical
T17 construct: purchased Reaction Biology Corporation

GSK3a = target: T18, GSK3a (Homo sapiens, UniProt P49840); experiment: HotSpot kinase assay; assay type: biochemical
T18 construct: purchased Reaction Biology Corporation

GSK3b = target: T19, GSK3b (Homo sapiens, UniProt P49841); assay type: biochemical
T19 construct: purchased Reaction Biology Corporation

JAK3 = target: T20, JAK3 (Homo sapiens, UniProt P52333); experiment: HotSpot kinase assay; assay type: biochemical
T20 construct: purchased Reaction Biology Corporation

LIMK1 = target: T21, LIMK1 (Homo sapiens, UniProt P53667); experiment: HotSpot kinase assay; assay type: biochemical
T21 construct: purchased Reaction Biology Corporation

MSK1/RPS6KA5 = target: T22, MSK1/RPS6KA5 (Homo sapiens, UniProt O75582); experiment: HotSpot kinase assay; assay type: biochemical
T22 construct: purchased Reaction Biology Corporation

MYO3b = target: T23, MYO3b (Homo sapiens, UniProt Q8WXR4); experiment: HotSpot kinase assay; assay type: biochemical
T23 construct: purchased Reaction Biology Corporation

NEK1 = target: T24, NEK1 (Homo sapiens, UniProt Q96PY6); experiment: HotSpot kinase assay; assay type: biochemical
T24 construct: purchased Reaction Biology Corporation

NEK6 = target: T25, NEK6 (Homo sapiens, UniProt Q9HC98); experiment: HotSpot kinase assay; assay type: biochemical
T25 construct: purchased Reaction Biology Corporation

P38a/MAPK14 = target: T26, P38a/MAPK14 (Homo sapiens, UniProt Q16539); experiment: HotSpot kinase assay; assay type: biochemical
T26 construct: purchased Reaction Biology Corporation

PDGFRa = target: T27, PDGFRa (Homo sapiens, UniProt P16234); experiment: HotSpot kinase assay; assay type: biochemical
T27 construct: purchased Reaction Biology Corporation

PIM2 = target: T28, PIM2 (Homo sapiens, UniProt Q9P1W9); experiment: HotSpot kinase assay; assay type: biochemical
T28 construct: purchased Reaction Biology Corporation

PKCb1 = target: T29, PKCb1 (Homo sapiens, UniProt P05771); assay type: biochemical
T29 construct: purchased Reaction Biology Corporation

PKCb2 = target: T30, PKCb2 (Homo sapiens, UniProt P05771); experiment: HotSpot kinase assay; assay type: biochemical
T30 construct: purchased Reaction Biology Corporation

PLK4/SAK = target: T31, PLK4/SAK (Homo sapiens, UniProt O00444); experiment: HotSpot kinase assay; assay type: biochemical
T31 construct: purchased Reaction Biology Corporation

RIPK4 = target: T32, RIPK4 (Homo sapiens, UniProt P57078); experiment: HotSpot kinase assay; assay type: biochemical
T32 construct: purchased Reaction Biology Corporation

RSK2 = target: T33, RSK2 (Homo sapiens, UniProt P51812); experiment: HotSpot kinase assay; assay type: biochemical
T33 construct: purchased Reaction Biology Corporation

SIK3 = target: T34, SIK3 (Homo sapiens, UniProt Q9Y2K2); experiment: HotSpot kinase assay; assay type: biochemical
T34 construct: purchased Reaction Biology Corporation

SRPK2 = target: T35, SRPK2 (Homo sapiens, UniProt P78362); experiment: HotSpot kinase assay; assay type: biochemical
T35 construct: purchased Reaction Biology Corporation

STK16 = target: T36, STK16 (Homo sapiens, UniProt O75716); experiment: HotSpot kinase assay; assay type: biochemical
T36 construct: purchased Reaction Biology Corporation

STK21/CIT = target: T37, STK21/CIT (Homo sapiens, UniProt O14578); experiment: HotSpot kinase assay; assay type: biochemical
T37 construct: purchased Reaction Biology Corporation

STK33 = target: T38, STK33 (Homo sapiens, UniProt Q9BYT3); experiment: HotSpot kinase assay; assay type: biochemical
T38 construct: purchased Reaction Biology Corporation

TAK1 = target: T39, TAK1 (Homo sapiens, UniProt O43318); experiment: HotSpot kinase assay; assay type: biochemical
T39 construct: purchased Reaction Biology Corporation

TAOK3/JIK = target: T40, TAOK3/JIK (Homo sapiens, UniProt Q9H2K8); experiment: HotSpot kinase assay; assay type: biochemical
T40 construct: purchased Reaction Biology Corporation

TRKA = target: T41, TRKA (Homo sapiens, UniProt P04629); experiment: HotSpot kinase assay; assay type: biochemical
T41 construct: purchased Reaction Biology Corporation

AMPK(A2/B2/G1) = target: T42, AMPK(A2/B2/G1) (Homo sapiens, UniProt P54646); experiment: HotSpot kinase assay; assay type: biochemical
T42 construct: purchased Reaction Biology Corporation

PDK1/PDHK1 = target: T43, PDK1/PDHK1 (Homo sapiens, UniProt Q15118); experiment: HotSpot kinase assay; assay type: biochemical
T43 construct: purchased Reaction Biology Corporation

MST3/STK24 = MST3/STK24 (Homo sapiens, UniProt Q9Y6E0); experiment: HotSpot kinase assay

In the case of `CO[C@@H]1[C@H](N(C)C(=O)CCC(=O)NCc2cn(CCCS(=O)(=O)O)nn2)C[C@H]2O[C@]1(C)n1c3ccccc3c3c4c(c5c6ccccc6n2c5c31)C(=O)NC4` [CIMSS], the “% Enzyme Activity (relative to DMSO controls)” value (ABL2/ARG) is reported as 3.90%, the “% Enzyme Activity (relative to DMSO controls)” value (AKT2) is reported as 29.76% and the “% Enzyme Activity (relative to DMSO controls)” value (AKT3) is reported as 9.86%. For the same compound, the “% Enzyme Activity (relative to DMSO controls)” value (BLK) was 0.29%, the “% Enzyme Activity (relative to DMSO controls)” value (BRK) was 24.16% and the “% Enzyme Activity (relative to DMSO controls)” value (CAMK2g) was 0.85%. The “% Enzyme Activity (relative to DMSO controls)” value (CDK2/cyclin A1) was 7.85%, the “% Enzyme Activity (relative to DMSO controls)” value (CDK2/cyclin E2) was 11.44% and the “% Enzyme Activity (relative to DMSO controls)” value (CDK5/P25) was 6.97%. The “% Enzyme Activity (relative to DMSO controls)” value (CDK5/p35) was 8.70%, the “% Enzyme Activity (relative to DMSO controls)” value (CDK7/cyclin H) was 65.37% and the “% Enzyme Activity (relative to DMSO controls)” value (EPHA1) was 30.84%. The “% Enzyme Activity (relative to DMSO controls)” value (EPHA5) was 52.25%, the “% Enzyme Activity (relative to DMSO controls)” value (ERK1) was 90.38% and the “% Enzyme Activity (relative to DMSO controls)” value (FER) was 0.26%. The “% Enzyme Activity (relative to DMSO controls)” value (GCK/MAP4K2) was 4.56%, the “% Enzyme Activity (relative to DMSO controls)” value (GRK2) was 28.58% and the “% Enzyme Activity (relative to DMSO controls)” value (GSK3a) was 2.26%. The “% Enzyme Activity (relative to DMSO controls)” value (GSK3b) was 2.83%, the “% Enzyme Activity (relative to DMSO controls)” value (JAK3) was 0.84% and the “% Enzyme Activity (relative to DMSO controls)” value (LIMK1) was 0.77%. For the same compound, the “% Enzyme Activity (relative to DMSO controls)” value (MSK1/RPS6KA5) was 1.49%, the “% Enzyme Activity (relative to DMSO controls)” value (MYO3b) was 5.12% and the “% Enzyme Activity (relative to DMSO controls)” value (NEK1) was 5.78%. The “% Enzyme Activity (relative to DMSO controls)” value (NEK6) was 87.72%, the “% Enzyme Activity (relative to DMSO controls)” value (P38a/MAPK14) was 100.67% and the “% Enzyme Activity (relative to DMSO controls)” value (PDGFRa) was 5.54%. For the same compound, the “% Enzyme Activity (relative to DMSO controls)” value (PIM2) was 20.94%, the “% Enzyme Activity (relative to DMSO controls)” value (PKCb1) was 2.30% and the “% Enzyme Activity (relative to DMSO controls)” value (PKCb2) was 1.66%. The “% Enzyme Activity (relative to DMSO controls)” value (PLK4/SAK) was 6.38%, the “% Enzyme Activity (relative to DMSO controls)” value (RIPK4) was 98.47% and the “% Enzyme Activity (relative to DMSO controls)” value (RSK2) was 1.58%. The “% Enzyme Activity (relative to DMSO controls)” value (SIK3) was 0.42% and 0.08%, the “% Enzyme Activity (relative to DMSO controls)” value (SRPK2) was 7.62% and the “% Enzyme Activity (relative to DMSO controls)” value (STK16) was 9.79%. For the same compound, the “% Enzyme Activity (relative to DMSO controls)” value (STK21/CIT) was 81.15%, the “% Enzyme Activity (relative to DMSO controls)” value (STK33) was 8.22% and the “% Enzyme Activity (relative to DMSO controls)” value (TAK1) was 6.81%. The “% Enzyme Activity (relative to DMSO controls)” value (TAOK3/JIK) was 12.63%, the “% Enzyme Activity (relative to DMSO controls)” value (TRKA) was -2.22% and -3.31% and the “% Enzyme Activity (relative to DMSO controls)” value (AMPK(A2/B2/G1)) was 0.23%. The “% Enzyme Activity (relative to DMSO controls)” value (PDK1/PDHK1) was 96.82% and the “% Enzyme Activity (relative to DMSO controls)” value (MST3/STK24) was 15.83%.
